Laboratory results reported in BindingDB's records for 25190468.

Protein sequences, listed by entry. Tags and fused reporters are not part of them. Residues count along the entry.
UniProt P22303, 32-614 limits assumed: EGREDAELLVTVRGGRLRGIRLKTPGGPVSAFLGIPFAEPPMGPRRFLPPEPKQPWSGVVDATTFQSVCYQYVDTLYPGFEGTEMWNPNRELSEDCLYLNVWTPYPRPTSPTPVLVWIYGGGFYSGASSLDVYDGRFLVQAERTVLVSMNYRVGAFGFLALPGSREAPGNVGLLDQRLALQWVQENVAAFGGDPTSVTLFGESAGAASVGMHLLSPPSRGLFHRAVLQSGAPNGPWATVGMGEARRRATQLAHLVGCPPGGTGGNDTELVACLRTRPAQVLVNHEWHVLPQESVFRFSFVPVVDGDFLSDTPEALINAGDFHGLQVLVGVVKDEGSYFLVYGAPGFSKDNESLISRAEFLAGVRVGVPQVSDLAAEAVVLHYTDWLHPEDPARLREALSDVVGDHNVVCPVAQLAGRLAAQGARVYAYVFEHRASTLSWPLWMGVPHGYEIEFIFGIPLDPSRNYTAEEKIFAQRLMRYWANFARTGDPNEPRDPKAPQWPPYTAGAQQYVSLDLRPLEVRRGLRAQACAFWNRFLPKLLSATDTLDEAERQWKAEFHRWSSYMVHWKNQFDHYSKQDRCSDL

These molecules were tested against Acetylcholinesterase (Homo sapiens, UniProt P22303) (assay: Binding affinity to paraoxon-inhibited AChE (unknown origin)).

| Compound | Kd [µM] |
| --- | --- |
| C[n+]1cccc(C=NO)c1 | 175 |
| NC(=O)c1cc[n+](Cc2ccccc2C[n+]2ccc(/C=N/O)cc2)cc1 | 174 |
| CC(=O)/C(C)=N/O | 393 |
| O/N=C/c1cc[n+](Cc2ccccc2C[n+]2ccc(/C=N/O)cc2)cc1 | 112 |
| CC(=O)/C=N/O | 128 |
| O/N=C/c1cc[n+](Cc2ccc(C[n+]3ccc(/C=N/O)cc3)cc2)cc1 | 107 |
| NC(=O)c1cc[n+](Cc2ccc(C[n+]3ccc(/C=N/O)cc3)cc2)cc1 | 173 |
